Assay results taken from BindingDB's records for PubMed 20126400 (University of Oklahoma, 2010).

Sequences of proteins named here, by UniProt entry; tags and fusion partners are left off. A change or cut given only in a name is not applied to a line headed by its entry.
UniProt P28335: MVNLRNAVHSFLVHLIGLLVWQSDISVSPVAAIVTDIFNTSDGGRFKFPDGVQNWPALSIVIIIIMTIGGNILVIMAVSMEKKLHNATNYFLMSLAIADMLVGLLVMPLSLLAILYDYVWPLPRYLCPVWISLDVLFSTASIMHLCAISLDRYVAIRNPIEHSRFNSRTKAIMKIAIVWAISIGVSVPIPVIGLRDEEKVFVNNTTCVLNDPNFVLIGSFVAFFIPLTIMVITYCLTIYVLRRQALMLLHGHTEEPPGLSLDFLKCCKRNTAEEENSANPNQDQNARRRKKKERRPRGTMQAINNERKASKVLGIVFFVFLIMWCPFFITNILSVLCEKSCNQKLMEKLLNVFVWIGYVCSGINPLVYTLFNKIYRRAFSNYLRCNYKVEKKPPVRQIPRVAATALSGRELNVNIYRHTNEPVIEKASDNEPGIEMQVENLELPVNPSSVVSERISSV
UniProt P28223, whole entry: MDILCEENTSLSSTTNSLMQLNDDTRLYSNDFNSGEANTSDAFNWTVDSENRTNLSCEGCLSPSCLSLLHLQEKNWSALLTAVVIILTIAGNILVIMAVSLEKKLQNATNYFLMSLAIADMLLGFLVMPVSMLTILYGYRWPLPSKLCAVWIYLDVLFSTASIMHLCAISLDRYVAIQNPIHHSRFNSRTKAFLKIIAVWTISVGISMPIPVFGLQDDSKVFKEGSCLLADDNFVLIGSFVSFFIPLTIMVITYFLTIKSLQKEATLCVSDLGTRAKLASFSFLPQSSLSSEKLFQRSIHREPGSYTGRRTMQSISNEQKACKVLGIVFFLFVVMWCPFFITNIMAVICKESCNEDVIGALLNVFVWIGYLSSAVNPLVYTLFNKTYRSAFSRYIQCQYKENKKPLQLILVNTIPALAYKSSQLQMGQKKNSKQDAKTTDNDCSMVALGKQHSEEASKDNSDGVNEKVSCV
UniProt P28221: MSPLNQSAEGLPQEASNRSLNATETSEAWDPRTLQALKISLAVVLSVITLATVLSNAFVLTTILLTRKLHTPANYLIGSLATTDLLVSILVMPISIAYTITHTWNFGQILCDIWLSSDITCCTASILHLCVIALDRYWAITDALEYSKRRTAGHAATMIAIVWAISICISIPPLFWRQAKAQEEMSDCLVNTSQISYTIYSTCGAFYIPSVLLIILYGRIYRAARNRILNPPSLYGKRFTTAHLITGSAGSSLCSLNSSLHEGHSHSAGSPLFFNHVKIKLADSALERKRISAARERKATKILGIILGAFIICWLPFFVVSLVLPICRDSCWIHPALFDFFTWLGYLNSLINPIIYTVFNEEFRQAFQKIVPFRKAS
UniProt P50406, whole entry: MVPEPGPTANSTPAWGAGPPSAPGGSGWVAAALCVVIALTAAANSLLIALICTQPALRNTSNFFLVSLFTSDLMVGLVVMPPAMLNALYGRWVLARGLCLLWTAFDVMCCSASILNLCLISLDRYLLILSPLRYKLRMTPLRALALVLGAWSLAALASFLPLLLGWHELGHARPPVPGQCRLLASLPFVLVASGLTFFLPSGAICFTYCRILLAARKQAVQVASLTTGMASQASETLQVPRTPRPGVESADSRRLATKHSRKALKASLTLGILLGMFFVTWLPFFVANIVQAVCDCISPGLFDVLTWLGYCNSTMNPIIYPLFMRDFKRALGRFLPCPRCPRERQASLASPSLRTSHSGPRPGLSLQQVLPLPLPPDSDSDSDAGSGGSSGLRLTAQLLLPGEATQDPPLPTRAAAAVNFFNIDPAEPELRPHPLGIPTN
UniProt P08908, whole entry: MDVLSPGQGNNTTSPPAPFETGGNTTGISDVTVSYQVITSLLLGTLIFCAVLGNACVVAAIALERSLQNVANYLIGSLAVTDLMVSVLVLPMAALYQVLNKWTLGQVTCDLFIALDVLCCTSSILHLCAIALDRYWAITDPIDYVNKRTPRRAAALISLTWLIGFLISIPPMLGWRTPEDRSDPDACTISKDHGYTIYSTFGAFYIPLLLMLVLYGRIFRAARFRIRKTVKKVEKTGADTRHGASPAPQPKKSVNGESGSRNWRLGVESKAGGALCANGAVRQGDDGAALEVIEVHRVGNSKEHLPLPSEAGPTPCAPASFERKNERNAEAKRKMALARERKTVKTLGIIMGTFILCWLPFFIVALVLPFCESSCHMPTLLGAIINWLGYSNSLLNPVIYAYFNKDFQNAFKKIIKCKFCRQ

What was measured:
[1] = target: T1, 5-hydroxytryptamine receptor 2C (Homo sapiens, UniProt P28335)
[2] = target: T1, 5-hydroxytryptamine receptor 2C; assay: Ray2010 Assay 74
[3] = target: T2, 5-hydroxytryptamine receptor 2A (Homo sapiens, UniProt P28223)
[4] = target: T2, 5-hydroxytryptamine receptor 2A; assay: Ray2010 Assay 74
[5] = target: 5-hydroxytryptamine receptor 1D (Homo sapiens, UniProt P28221); assay: Ray2010 Assay 74
[6] = target: 5-hydroxytryptamine receptor 6 (Homo sapiens, UniProt P50406); assay: Ray2010 Assay 74
[7] = target: 5-hydroxytryptamine receptor 1A (Homo sapiens, UniProt P08908); assay: Ray2010 Assay 74

SMILES: CNC(C)Cc1ccc2c(c1)OCO2 (stereo not drawn) [mdma]
- EC50 [1]: 831 nM and 4300 nM
- Ki [2]: > 10000 nM

SMILES: COc1ccc2[nH]cc(CCN(C(C)C)C(C)C)c2c1 [5-meo-dipt]
- EC50 [3]: 215 nM
- Ki [4]: > 10000 nM

SMILES: COc1ccc2[nH]cc(CCN(C)C)c2c1 [3-(2-DIMETHYLAMINOETHYL)-5-METHOXYINDOLE]
- Ki [5]: 6.3 nM
- Ki [6]: 35.5 nM
- Ki [7]: 1.9 nM

SMILES: CN[C@@H](C)Cc1ccc2c(c1)OCO2 [S-(+)-MDMA]
- EC50 [1]: 121 nM

“And” between values parts separate entries of the source, which are not always exact repeats. Equal values may be shown once.
